How the values were obtained:
PPARδ = molecular target: T1, PPARδ (Homo sapiens, UniProt Q03181); experiment: In vitro screening of nuclear receptor agonist: luciferase reporter gene assay in HepG2 cells; type: cell-based; conditions: RXR/PPARδ luciferase reporter gene, 24 h treatment
T1 construct: expressed in transfected cells; host or cells: HepG2 (human hepatocarcinoma, ATCC)
T1 sequence (Q03181 1-441): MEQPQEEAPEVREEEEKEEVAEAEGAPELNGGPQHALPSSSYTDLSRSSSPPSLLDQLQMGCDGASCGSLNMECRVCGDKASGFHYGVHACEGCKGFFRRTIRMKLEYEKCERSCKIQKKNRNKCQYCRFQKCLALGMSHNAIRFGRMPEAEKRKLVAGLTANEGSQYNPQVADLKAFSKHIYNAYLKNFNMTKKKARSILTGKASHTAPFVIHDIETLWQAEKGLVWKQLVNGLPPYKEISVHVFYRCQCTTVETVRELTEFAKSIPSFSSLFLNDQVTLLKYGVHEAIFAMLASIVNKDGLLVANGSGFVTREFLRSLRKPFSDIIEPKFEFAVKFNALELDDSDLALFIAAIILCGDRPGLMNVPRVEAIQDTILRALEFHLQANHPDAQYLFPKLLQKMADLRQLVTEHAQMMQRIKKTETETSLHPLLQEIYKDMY
T1 sequence (P19793 1-462 partner): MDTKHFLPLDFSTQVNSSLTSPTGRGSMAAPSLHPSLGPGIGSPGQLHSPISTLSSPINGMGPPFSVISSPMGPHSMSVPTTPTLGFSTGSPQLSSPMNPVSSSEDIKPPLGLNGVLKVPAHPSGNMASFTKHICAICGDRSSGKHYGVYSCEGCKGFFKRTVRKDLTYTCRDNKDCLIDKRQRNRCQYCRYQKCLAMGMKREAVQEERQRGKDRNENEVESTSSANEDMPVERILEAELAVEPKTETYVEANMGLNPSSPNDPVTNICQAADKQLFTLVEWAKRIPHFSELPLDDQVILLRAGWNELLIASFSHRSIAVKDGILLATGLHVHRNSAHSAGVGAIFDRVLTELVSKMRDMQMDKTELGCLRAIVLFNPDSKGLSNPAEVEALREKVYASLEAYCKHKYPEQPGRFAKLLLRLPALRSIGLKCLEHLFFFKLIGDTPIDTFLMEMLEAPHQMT
From the text: Using a reporter gene protocol, the screening model for screening a nuclear receptor agonist in a living cell is designed on a basis of the principal that an activated nuclear receptor can activate transcription of its downstream gene. A reporter gene plasmid is constructed, in which the DNA binding sequence for the nuclear receptor (NRE) is inserted upstream of the luciferase gene, so that the expression of the luciferase gene is placed under the control of the nuclear receptor. Then, the reporter gene plasmid and the nuclear receptor are simultaneously transferred into a cell, and the nuclear receptor is activated when the nuclear receptor agonist is present in the cell culture medium. Then the activated receptor is able to induce the expression of the luciferase gene, while the amount of the luciferase can be determined through its luminous substrate. In this way, the intensity of activation by the compound on the nuclear receptor could be known by observing the luminescence intensity. […] The experimental results are expressed as relative fold activation, with a value of 1 for the solvent control, and the greater the fold is, the higher the activation capacity represents. […]

[1] = tested on: Macaca rhesus model of hyperlipidemia; experiment: Macaca rhesus model of hyperlipidemia, hematological indicators and ELISA; type: in vivo; conditions: ELISA, three months of administration, in words
From the text: Afterwards, efficacy of the medicament of the A-3 was confirmed in the Macaca rhesus model of hyperlipidemia. After three months of administration, blood samples were taken from the femoral vein for the determination of hematological indicators, and the determination of the insulin, apolipoprotein A-1 (apoA-1) and apolipoprotein B-100 (apoB-100) by ELISA.

[2] = Pharmacokinetics: plasma concentration-time curve; type: in vivo; conditions: SD rats, gastric lavage, 50, 10 and 2 mg/kg
Description: 36 of SD rats were selected with a female-to-male ratio of 1:1 and a body weight in the range of 150-170 g, assigned them into two dosage groups, and they were administrated with A-1 and A-3, respectively; while 3 dosage subgroups were designed in each dosage group with the dose concentrations being 50, 10, and 2 mg/kg, six animals each subgroup with the female-to-male ratio of 1:1. All of the rats were fasting over 12 h and given ad libitum access to water. The dosing volume was 10 ml/kg, and blood samples of 0.4-0.5 ml were taken from the vena orbitalis posterior of the waken animals at different time points post-gastric lavage and centrifuged at 5000 rpm for 10 min. 200 μL of plasma sample was precisely measured, then supplemented with 200 μL acetonitrile, vortexed to evenness, left stand for 5 min, and centrifuged (14000 rpm, 5 min). The supernatant was collected and then centrifuged again (14000 rpm, 5 min). The resulting supernatant was gathered and subjected to HPLC injection. Time points for blood sampling were respectively: 0, 0.5, 1, 2, 4, 6, 8, 10, 12, 24, 36, 48 and 72 h, and the peak area for each time point was the average of those obtained from 6 rats at the same time point. Plasma concentrations were calculated and the medicament concentration-time curve was plotted.

EC50 (PPARδ): 10 nM
t1/2 [2]: 10 to 12 h
Substance: 2-(3-methyl-4-(1-(3-(4-methyl-5-oxo-1-(4-trifluoromethyl-phenyl)-4,5-dihydrogen-1H-1,2,4-triazolyl))-benzyloxy)-phenylthio)-acetic acid [Compound A-3]
ratio of apoA-1 to apoB-100 [1]: approached to that in normal animals

— US8822519B2, “Compound with agitation effect on peroxisome proliferator-activated receptor process for its preparation and use thereof” (Zhejiang Hisun Pharmaceutical Co., Ltd., priority 2008, dated 2014)
